IC50 data for one compound are collected here from patent EP3419609B1, “TREATMENT OF ALKAPTONURIA AND TYROSINEMIA TYPE 1” (Università degli Studi di Siena, priority 2016, dated 2017).

Protein sequences, listed by entry. Tags and fused reporters are not part of them. Lines headed by an entry give the natural chain unless they say otherwise; changes in a name come on top.
UniProt P32755: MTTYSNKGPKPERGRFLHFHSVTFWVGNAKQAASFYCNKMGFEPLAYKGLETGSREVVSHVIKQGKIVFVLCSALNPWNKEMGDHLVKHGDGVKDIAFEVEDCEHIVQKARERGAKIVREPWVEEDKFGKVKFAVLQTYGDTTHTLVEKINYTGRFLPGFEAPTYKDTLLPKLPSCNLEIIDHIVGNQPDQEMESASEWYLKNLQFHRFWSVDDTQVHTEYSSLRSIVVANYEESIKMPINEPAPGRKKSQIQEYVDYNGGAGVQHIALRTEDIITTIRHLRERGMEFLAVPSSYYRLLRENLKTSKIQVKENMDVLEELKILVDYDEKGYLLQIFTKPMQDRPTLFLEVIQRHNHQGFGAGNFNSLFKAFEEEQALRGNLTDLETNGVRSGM

For the experiment, the target named is T1, 4-HPPD (Rattus norvegicus, UniProt P32755).
T1 construct: from tissue; host or cells: liver cytosol of a male Wistar rat
The experiment in a line: Determination of 4-HPPD activity by oxygen consumption (SDR SensorDish Reader) in rat liver cytosol. It is filed as biochemical, male Wistar rat. Conditions: read-out: IC50 (4-HPPD inhibitory activity). The method, then:
4-HPPD activity was evaluated in the liver cytosol of a male Wistar rat by monitoring oxygen consumption through the use of the SDR SensorDish® Reader (Presens, Precision Sensing GmbH, Regensburg, Germany). Briefly, a special test tube with an oxygen sensor placed on the bottom was filled with 0.2 M sodium phosphate buffer with pH 7.4, 1.7 mM ascorbic acid (used as a cofactor) and 10.92 mg of rat enzyme preparation (4-HPPD source). The mixture was equilibrated at 37°C for 5 min. and the reaction was started by the addition of substrate ([…], Sigma-Aldrich cod. SAE0003). […] The percentage of inhibition of enzymatic activity was calculated as the ratio of the slopes (decrease of the concentration of O2 (µmol/L) per min.) of the samples containing the inhibitor versus the untreated controls corrected with the negative control values. The IC50 values were calculated by means of regression analysis in the range of tested concentrations by means of the Origin® - Data Analysis and Graphing software using a sigmoid type interpolating curve and plotting on the x-axis the concentrations of the compounds and on the y-axis oxygen consumption values expressed as a percentage of 4-HPPD inhibition, the reduction of oxygen being correlated with inhibition of the enzyme. […]

What is called IC50 is the concentration that inhibits the measured activity by half. For the compound `O=C1CCCC(=O)C1C(=O)c1ccc(C(F)(F)F)cc1[N+](=O)[O-]` [Compound 1, 2-(2-nitro-4-(trifluoromethyl)benzoyl)cyclohexane-1,3-dione, reference compound], the half-maximal inhibitory concentration (IC50) was 173 nM.
